Rows were chosen to be rich in hits. Some 1.2% of all compounds tested hit in one or more screens of this group.
Arr AP2 block: blocks beta-arrestin peptide binding to AP2 adaptin; FITC-arrestin peptide / GST-AP2 beads, flow cytometry; AP2 beta2 appendage carries R879A mutation; inhibition, % at 10 µM; actives 0.31% (n = 340,000);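 active means inhibition above a set limit, near 3 SD of compounds lacking own fluorescence, cut at about 54% in these data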;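 further: plate controls were DMSO wells for no effect and 5 µM unlabelled arrestin peptide for full effect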
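System: GST-tagged AP2 beta2-adaptin appendage (R879A) on 4 µm glutathione beads / Reagent: FITC-arrestin peptide, 50 nM / Detection: HyperCyt-sampled flow cytometry, FL1 channel, ex 488/em 535 nm / Timing: 12 min plus 1 h, RT / Buffer or medium: PBS plus Tween 20 (0.05%) and BSA (0.1%)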
TbMetRS inhib: blocks T. brucei methionyl-tRNA synthetase activity. purified T. brucei MetRS, ATP depletion, Kinase-Glo luminescence. inhibition, % at 11.9 µM. actives 0.4% (n = 360,000);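 active means inhibition above a per-plate cutoff of the control wells' mean inhibition plus 3 SD, cut at about 5.5% in these data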;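 further: 0% = DMSO wells median and 100% = median of wells with control inhibitor compound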
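Dosing: 11.9 µM single point; system: parasite MetRS enzyme; technique: luminescence of leftover ATP; times: 15 min enzyme-compound preincubation, 2 h reaction, 10 min detection, 25 °C; replicates: each compound tested once; read-out basis: percent inhibition relative to median high and low control wells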
Yeast UUG start: modulators of start codon recognition fidelity in yeast. S. cerevisiae UUG-firefly luciferase reporter, luminescence/redox ratio. activity score, % at 18.7 µM. 350,000 tested, 0.13% active;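 active = replicate mean at a twofold rise or more, about +100% in these data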;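 note: firefly luciferase made from a UUG start codon reports start codon fidelity; reporter light over untreated wells divided by growth signal over untreated wells; some hits fall short of that in this replicate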
Rce1 inh: blocks yeast Ras-converting enzyme; Q03530; yeast membranes, quenched prenylated peptide cleavage fluorescence; calls only; actives 0.27% (n = 290,000); AID 2563;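 active means fall in fluorescence gain of 50% or more versus controls, with final raw signal at or below 3038400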;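 further: plate controls were neutral control wells for no effect and wells lacking membranes for full effect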
Pemphigus Ab inh: human desmoglein-3 autoantibody binding inhibition; P32926; DSG3-coupled beads, scFv-anti-DSG3-GFP binding, flow cytometry; stronger effect = lower value; binding (percent of control), % at 10 µM; actives 0.48% (n = 310,000);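 active means binding more than 3 SD below its plate's average and above zero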;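 further: hits lower antibody fragment binding to DSG3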
Tb MetRS conf: confirmation of Trypanosoma brucei MetRS inhibitors | T. brucei MetRS enzyme, luminescence (ATP depletion) | AID 624412 | inhibition, % at 11.9 µM | shares compounds with TbMetRS inhib | actives 93% (n = 1,400); in the data active means inhibition above about 7%
Jurkat cytotox: kills Jurkat cells in T. brucei MetRS counterscreen; shares compounds with TbMetRS inhib; Jurkat cells viability, ATP luminescence; inhibition, % at 8.3 µM; actives 12% (n = 1,400); in the data active means inhibition above about 15%;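 further: 0% = vehicle and 100% = reference inhibitor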
TbMetRS FP orth: inhibits T. brucei methionyl tRNA synthetase in orthogonal FP test. purified T. brucei MetRS, fluorescence polarization. shares compounds with TbMetRS inhib. inhibition, % at 11.9 µM. actives 44% (n = 1,400); in the data active means inhibition above about 17%;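 further: 0% = vehicle wells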
An asterisk follows results filed as active.

How did O=C(Nc1nc2ccccc2[nH]1)c1ccc([N+](=O)[O-])cc1 do in these assays?
Arr AP2 block: -4; TbMetRS inhib: 0; Rce1 inh: inactive; Pemphigus Ab inh: 100

Results for O=C(NCc1nc2ccccc2[nH]1)c1ccc([N+](=O)[O-])cc1 ?
Arr AP2 block: -7; TbMetRS inhib: 52*; Rce1 inh: inactive; Pemphigus Ab inh: 94; Tb MetRS conf: 75*; Jurkat cytotox: 2; TbMetRS FP orth: 40*

How did O=C(NCc1nc2ccccc2[nH]1)c1ccc(S(=O)(=O)N2CCCC2)cc1 do in these assays?
Arr AP2 block: -22; TbMetRS inhib: 2; Yeast UUG start: -12; Rce1 inh: inactive; Pemphigus Ab inh: 107

Results for O=C(NCc1nc2ccccc2[nH]1)c1ccc(S(=O)(=O)N2CCOCC2)cc1 ?
Arr AP2 block: 5; TbMetRS inhib: 12*; Yeast UUG start: -3; Rce1 inh: inactive; Pemphigus Ab inh: 105; Tb MetRS conf: 21*; Jurkat cytotox: 1; TbMetRS FP orth: 3

Results for Fc1ccccc1CSc1nc2ncc(Br)cc2[nH]1 ?
Arr AP2 block: -8; TbMetRS inhib: 5.9*; Yeast UUG start: -5; Rce1 inh: inactive; Pemphigus Ab inh: 104; Tb MetRS conf: 14*; Jurkat cytotox: -4; TbMetRS FP orth: 17*

Results for CC(C)(C)C(=O)CSc1nc2ncc(Br)cc2[nH]1 ?
Arr AP2 block: -1; TbMetRS inhib: 7.5*; Yeast UUG start: -7; Rce1 inh: inactive; Tb MetRS conf: 18*; Jurkat cytotox: -1; TbMetRS FP orth: 7

Results for N#Cc1ccccc1CSc1nc2ncc(Br)cc2[nH]1 ?
Arr AP2 block: 25; TbMetRS inhib: 8.3*; Yeast UUG start: -21; Rce1 inh: inactive; Pemphigus Ab inh: 96; Tb MetRS conf: 37*; Jurkat cytotox: -5; TbMetRS FP orth: 17*

What do the screens show for `CO[C@@H]1CN(C)C(=O)c2cc(NC(=O)c3ccccc3F)ccc2OC[C@@H](C)N(C)C[C@@H]1C`?
Yeast UUG start: -15

How did CCN(CC(=O)Nc1ccc(OC)cc1)C(=O)c1ccc2c(c1)NC(=O)C(C)S2 (stereo not given) do in these assays?
Arr AP2 block: -3; TbMetRS inhib: 18*; Yeast UUG start: 2; Rce1 inh: inactive; Pemphigus Ab inh: 103; Tb MetRS conf: 48*; Jurkat cytotox: -1; TbMetRS FP orth: 24*

Results for CNC[C@H]1Oc2ccc(NS(=O)(=O)c3c(C)noc3C)cc2C(=O)N([C@@H](C)CO)C[C@@H]1C ?
Yeast UUG start: -8

What do the screens show for `O=[N+]([O-])c1ccc(OCc2cnc(Cl)s2)c([N+](=O)[O-])c1`?
Arr AP2 block: 5; TbMetRS inhib: 6.7*; Rce1 inh: inactive; Pemphigus Ab inh: 87*; Tb MetRS conf: 18*; Jurkat cytotox: 1; TbMetRS FP orth: 16

Results for CCC(=O)Nc1ccc2c(c1)C(=O)N(C)C[C@H](OC)[C@H](C)CN[C@@H](C)CO2 ?
Yeast UUG start: -5

What do the screens show for `C[C@@H]1CN([C@@H](C)CO)C(=O)c2cc(NC(=O)Nc3ccccc3)ccc2O[C@@H](C)CCCCO[C@H]1CN(C)C(=O)Nc1ccc(C(F)(F)F)cc1`?
TbMetRS inhib: 18*; Yeast UUG start: -7; Pemphigus Ab inh: 96; Tb MetRS conf: 22*; Jurkat cytotox: 3; TbMetRS FP orth: 15

How did C[C@@H]1CCCCO[C@H](CN(C)C(=O)Nc2ccc(C(F)(F)F)cc2)[C@H](C)CN([C@@H](C)CO)C(=O)c2cc(NC(=O)Nc3ccccc3)ccc2O1 do in these assays?
Yeast UUG start: -8

What do the screens show for `CCC(=O)N1[C@H](CO)[C@@H]2c3ccccc3N(C(=O)Nc3cccc(Cl)c3)C[C@@H]21`?
Yeast UUG start: -7

Results for NC(=O)c1cccc(-c2ccnc3c2CC(C(=O)Nc2ccc(Cl)cc2)O3)c1 (stereo not given) ?
TbMetRS inhib: 52*; Yeast UUG start: -5; Tb MetRS conf: 70*; Jurkat cytotox: 5; TbMetRS FP orth: 47*

What do the screens show for `O=C(COc1ccc(Br)cc1)NNC(=O)c1ccc(-n2cncn2)c([N+](=O)[O-])c1`?
Arr AP2 block: -2; TbMetRS inhib: 20*; Yeast UUG start: -5; Pemphigus Ab inh: 96; Tb MetRS conf: 54*; Jurkat cytotox: 1; TbMetRS FP orth: 23*

Results for Cc1ccc(OCC(=O)NNC(=O)c2ccc(-n3cncn3)c([N+](=O)[O-])c2)cc1 ?
Arr AP2 block: 1; TbMetRS inhib: 16*; Pemphigus Ab inh: 106; Tb MetRS conf: 41*; Jurkat cytotox: -4; TbMetRS FP orth: 17*

How did CCc1ccc(OCC(=O)NNC(=O)c2ccc(-n3cncn3)c([N+](=O)[O-])c2)cc1 do in these assays?
Arr AP2 block: 24; TbMetRS inhib: 5.9*; Pemphigus Ab inh: 102; Tb MetRS conf: 35*; Jurkat cytotox: -8; TbMetRS FP orth: 17*

Results for O=C(c1ccc(-n2cncn2)c([N+](=O)[O-])c1)N1CCN(S(=O)(=O)c2ccc(Cl)cc2)CC1 ?
Arr AP2 block: 5; TbMetRS inhib: 3; Yeast UUG start: -4; Rce1 inh: inactive; Pemphigus Ab inh: 104

How did C[C@H]1CN([C@@H](C)CO)C(=O)Cc2cc(NC(=O)C3CC3)ccc2O[C@H]1CN(C)S(=O)(=O)c1cn(C)cn1 do in these assays?
Yeast UUG start: 0

What do the screens show for `COc1ccc(NC(=O)N(C)C[C@@H]2Oc3ccc(NC(=O)Cc4ccccc4)cc3CC(=O)N([C@H](C)CO)C[C@@H]2C)cc1`?
Yeast UUG start: 12

Results for COc1cccc(CN(C)C[C@H]2OCc3cn(nn3)CCCC(=O)N([C@@H](C)CO)C[C@@H]2C)c1 ?
Yeast UUG start: -16

What do the screens show for `C[C@@H]1CN([C@@H](C)CO)C(=O)c2cc(NC(=O)NC3CCCCC3)ccc2O[C@H]1CN(C)S(C)(=O)=O`?
Yeast UUG start: 6

Results for CC(C)NC(=O)N(C)C[C@H]1Oc2cc(C3=CCCC3)ccc2S(=O)(=O)N([C@@H](C)CO)C[C@H]1C ?
Yeast UUG start: -5

What do the screens show for `Cc1cc(C)nc(NS(=O)(=O)c2ccc(NC(=O)Nc3ccccc3F)cc2)n1`?
Arr AP2 block: -7; TbMetRS inhib: 7.3*; Yeast UUG start: -9; Rce1 inh: inactive; Pemphigus Ab inh: 108; Tb MetRS conf: 16*; Jurkat cytotox: -8; TbMetRS FP orth: 2

Nothing new here: 3 of the compounds above.
What do the screens show for `C[C@@H]1CN([C@@H](C)CO)C(=O)c2cc(NC(=O)NC3CCCCC3)ccc2O[C@H]1CN(C)S(C)(=O)=O`?
Yeast UUG start: 6

Results for CC(C)NC(=O)N(C)C[C@H]1Oc2cc(C3=CCCC3)ccc2S(=O)(=O)N([C@@H](C)CO)C[C@H]1C ?
Yeast UUG start: -5

What do the screens show for `Cc1cc(C)nc(NS(=O)(=O)c2ccc(NC(=O)Nc3ccccc3F)cc2)n1`?
Arr AP2 block: -7; TbMetRS inhib: 7.3*; Yeast UUG start: -9; Rce1 inh: inactive; Pemphigus Ab inh: 108; Tb MetRS conf: 16*; Jurkat cytotox: -8; TbMetRS FP orth: 2

High-throughput results deposited in PubChem BioAssay by several laboratories.
